Assay results as given in PubChem BioAssay (Tox21).
This is a selection; strong and weak results do not stand in their true shares. Results filed as inconclusive are left out. Where a structure was tested more than once in an assay, its records may differ in their call. The source made the active and inactive calls. Calls come from the whole dose curve; as a rule, active = well fitted cell-killing curve with a large enough effect in the repeat runs; inconclusive = weak or mixed curves, or effect the other way; inactive = flat fitted curve, though single readings scatter.

assay: qHTS assay to identify small molecule agonists of the TGF-beta/Smad signaling pathway - cell viability counter screen (AID 1346829); conditions: SBE-bla HEK293T viability, CellTiter-Glo luminescence, 5 h; series mostly up to 76.8 µM; activity change, negative = cytotoxicity: at the top concentration; note: nearly all actives have a fitted effect of over 45% in size; for activity change, negative = cytotoxicity: top concentration of the series differs between compounds
From the text: National Center for Advancing Translational Sciences [NCATS]
NIH Chemical Genomics Center [NCGC]
U.S. Environmental Protection Agency [EPA]
National Institutes of Environmental Health Sciences [NIEHS]
National Toxicology Program [NTP]
U.S. Food and Drug Administration [FDA]
Transforming growth factor beta (TGF-beta) superfamily consists of a large number of structurally related dimeric proteins that act as hormones or local mediators in regulating a wide range of biological functions. This superfamily includes TGF-betas themselves, the bone morphogenetic proteins (BMPs) and the activins. These ligands induce oligomerization of serine/threonine receptor kinases and phosphorylate the cytoplasmic signaling molecules of Smad protein family. CellSensor SBE-bla HEK 293T cell line (Life Technologies, Carlsbad, CA), responsive to TGF-beta was used to screen Tox21 10K compound library for identification of agonists/antagonists of the Smad signaling pathway. This cell line contains a beta-lactamase reporter gene under control of the Smad binding element (SBE) stably integrated into HEK 293T cells. Also cytotoxicity of the compounds was tested in parallel by measuring the cell viability using CellTiter-Glo assay system in the same wells.
Tox21 Assay Protocol Summary:
SBE-bla HEK 293T cells were dispensed at 4,000/well in 6 uL of assay medium into black wall/clear-bottom 1536-well plates using a Multidrop Combi (ThermoFisher Scientific, Waltham, MA) dispenser. After the assay plates were incubated at 37 C and 5% CO2 for an overnight, 23 nL of compounds dissolved in DMSO, positive controls or DMSO only was transferred to the assay plate by a Pintool station (Kalypsys, San Diego, CA). The assay plates were incubated at 37 C and 5% CO2 for 5 hr. One uL of LiveBLAzer B/G FRET substrate (Life Technologies) was added using a Flying Reagent Dispenser (FRD, Aurora Discovery, San Diego, CA) and the plates were incubated at room temperature for 2 hr. Fluorescence intensity (405 nm excitation, 460 nm and 530 nm emissions) was measured using an Envision plate reader (PerkinElmer, Shelton, CT). For cytotoxicity read, 4 uL of CellTiter-Glo reagent (Promega Corporation, Madison, WI) was added to each well of the assay plates using FRD. After 30min incubation at room temperature, the luminescence intensity was measured using ViewLux plate reader (PerkinElmer).
% is set by controls: 0 for no effect and ±100 for the full control effect; potency is the fitted concentration of half-maximal effect.

Structure (SMILES) | activity change, negative = cytotoxicity | Potency
O=P(Cl)(Cl)c1ccccc1 | inactive: 7.06% | 
O=C(Cl)Oc1ccccc1 | inactive: -3.04% | 
O=[p+]1oc2ccccc2c2ccccc21 (centres undefined) | inactive: 2.47% | 
CCC(C)(OOC(C)(C)C)OOC(C)(C)C | inactive: -0.297% [at 15.8 µM] | 
O=[N+]([O-])c1ccc([N+](=O)[O-])cc1 | inactive: -9.82% | 
CN(C(=O)Cc1ccc(Cl)c(Cl)c1)[C@H]1CC[C@@]2(CCCO2)C[C@@H]1N1CCCC1 | inactive: -10.4% [at 35.3 µM] | 
O=P(Cl)(Oc1ccccc1)Oc1ccccc1 | inactive: -4.39% | 
CCOC(=O)Cl | inactive: 4.39% | 
COP(=S)(Cl)OC | inactive: -22.7% | 
CC(C)OP(=S)(OC(C)C)SCCNS(=O)(=O)c1ccccc1 | inactive: 2.8% | 
Cc1cc([N+](=O)[O-])cc([N+](=O)[O-])c1O | inactive: -8.94% | 
O=[P+](Oc1ccccc1)Oc1ccccc1 | inactive: 7.84% | 
CCCCO[P+](=O)OCCCC | inactive: -3.22% | 
CCCCC(CC)CO[P+](=O)OCC(CC)CCCC (centres undefined) | inactive: -0.458% | 
CN(C(=O)Cc1ccccc1)[C@H]1CC[C@@]2(CCCO2)C[C@@H]1N1CCCC1 | inactive: -16.5% [at 35.3 µM] | 
COC(=O)Cl | inactive: -1.81% | 
CCCCOP(OCCCC)OCCCC | inactive: -10.9% | 
CCCCCCCCCCCCCC[P+](CCCCCC)(CCCCCC)CCCCCC |  | active: 48.8 µM
O=C(Cl)OCCOC(=O)Cl | inactive: -0.218% | 
Cc1cc([N+](=O)[O-])c(O)c([N+](=O)[O-])c1 | inactive: 1.25% | 
O=[As]c1ccccc1 (centres undefined) |  | active: 1.74 µM
O=[N+]([O-])c1ccc(S(=O)(=O)O)c([N+](=O)[O-])c1 | inactive: 11.4% | 
CC(C)CCCCCCCOP(OCCCCCCCC(C)C)Oc1ccccc1 | inactive: -8.74% | 
CN(C(=O)Cc1cccc2occc12)[C@H]1CC[C@@]2(CCCO2)C[C@@H]1N1CCCC1 | inactive: -20% | 
CN(N=O)C(=N)N[N+](=O)[O-] | inactive: 0.197% | 
ClP(Cl)c1ccccc1 | inactive: 0.073% | 
CCNC(C)Cc1ccc2c(c1)OCO2 (centres undefined) | inactive: -13.9% | 
CCOP(=S)(CC)Sc1ccccc1 (centres undefined) | inactive: 1.19% | 
NC(=O)Nc1ccc([As](=O)(O)O)cc1 |  | inactive
